Data published in US5487990A (The General Hospital Corporation, priority 1992, dated 1996).
Only a part of the results on these compounds is given; other tests are left out.

Amino acid sequences for entries named in this document (tags omitted).
UniProt P32316, whole entry: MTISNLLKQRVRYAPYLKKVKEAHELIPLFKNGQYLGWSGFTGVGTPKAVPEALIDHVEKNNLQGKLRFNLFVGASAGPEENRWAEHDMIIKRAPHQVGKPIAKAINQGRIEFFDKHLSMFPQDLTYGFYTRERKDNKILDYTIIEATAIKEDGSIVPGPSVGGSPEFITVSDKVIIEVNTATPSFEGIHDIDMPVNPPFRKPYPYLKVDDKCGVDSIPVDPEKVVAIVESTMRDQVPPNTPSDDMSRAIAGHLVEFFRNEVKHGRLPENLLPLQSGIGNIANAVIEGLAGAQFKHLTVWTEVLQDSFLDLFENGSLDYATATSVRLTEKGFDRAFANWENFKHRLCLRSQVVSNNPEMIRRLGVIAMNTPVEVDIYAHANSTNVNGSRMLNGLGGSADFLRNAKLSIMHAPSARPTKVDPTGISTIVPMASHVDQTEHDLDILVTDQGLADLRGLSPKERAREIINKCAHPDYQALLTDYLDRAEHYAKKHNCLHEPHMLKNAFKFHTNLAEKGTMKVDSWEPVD

Biological target: Acetyl-CoA Hydrolase from S. cerevisiae (Saccharomyces cerevisiae, UniProt P32316)
Assay: Chemical modification of the enzyme, dialysis, then radioactive assay
Assay type: biochemical

## O=[N+]([O-])c1cc([N+](=O)[O-])c(S(=O)(=O)O)c([N+](=O)[O-])c1
1 mM
  effect on enzyme activity (in words): no effect
10 mM
  effect on enzyme activity (in words): partial inactivation
